miR122 inh: inhibitors of miR-122 in Huh7 cells; Huh7 miR-122 Renilla luciferase sensor, 48 h; neutral wells = 0, positive control = 100; activation (reporter increase), % at 12.5 µM; hit rate 0.3% among 340,000;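 active = mean replicate activation score at least 90 and every replicate individually at or above 90; inconclusive = only one of the two criteria met; inactive = neither criterion met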;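 note: higher luciferase means less miR-122 activity so hits act as miR-122 inhibitors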
MITF act: increases MITF-driven TRPM1 promoter luciferase signal | SK-MEL-5 TRPM1-promoter luciferase, 24 h; % of positive control, neutral wells = 0 | activation, % at 12.5 µM | hit rate 0.75% among 300,000 | AID 588334;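 active = mean activation of at least 80% with every replicate also reaching 80%; inconclusive = mean reaches 80% but some replicate falls short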;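 note: 0% = neutral control wells and 100% = parthenolide positive control wells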
Yeast UUG start: modulators of start codon recognition fidelity in yeast; AID 602363; hit rate 0.13% among 350,000; activity score, % at 18.7 µM; S. cerevisiae UUG-firefly luciferase reporter, luminescence/redox ratio;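 active = replicate mean at a twofold rise or more, about +100% in these data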;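 note: firefly luciferase made from a UUG start codon reports start codon fidelity; reporter light over untreated wells divided by growth signal over untreated wells; some hits fall short of that in this replicate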
Wnt act: Wnt/beta-catenin pathway activation. activation, % at 9.35 µM. Wnt/beta-catenin reporter cell assay, activator, plate reader. hit rate 1.2% among 300,000. AID 743398; in the data active = activation above about 30%, passing the limit was not always enough; inconclusive = no clear call, values can overlap the other calls;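 note: 0% = neutral control wells and 100% = positive control wells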
PglD DTNB: blocks C. jejuni PglD acetyltransferase activity. AID 602405. inhibition, % at 12.5 µM. hit rate 0.098% among 360,000. purified PglD enzyme, DTNB colorimetric CoA detection; in the data active = inhibition above about 16%, passing the limit was not always enough; inconclusive = no clear call, values can overlap the other calls
esBAF inh: inhibitors of esBAF chromatin remodeling in mouse ES cells. Bmi1-luciferase knock-in reporter, 24 h; 100% = twice the neutral-well signal. reporter increase, % at 12.5 µM. hit rate 2% among 350,000. AID 602393; in the data active = activation above about 40%; inconclusive = no clear call, values can overlap the other calls;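 note: 0% = median of the plate's neutral control wells and 100% = double that signal; a rise in the Bmi1 reporter signal indicates esBAF inhibition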
Starred values were filed as active, the others as inactive; ? = inconclusive; · = no result given; [ ] = another dose, or the depositor's remark. Most compounds without a hit are left out; they make up all but 2.8% or so of the library.

Sequence of screens – miR122 inh, MITF act, Yeast UUG start, Wnt act, PglD DTNB, esBAF inh
(1) COc1ccc(S(=O)(=O)Nc2cccc3c2O[C@@H](CN(C)S(=O)(=O)c2ccc(Cl)cc2)[C@H](C)CN([C@H](C)CO)C3=O)cc1
 : -4.4[16.7 µM], ·, -9.8, ·, -1.2, 0.1
(2) C[C@@H]1CN([C@@H](C)CO)C(=O)c2cccc(NS(=O)(=O)c3cccs3)c2O[C@@H]1CN(C)Cc1ccccc1
 : 10.6[16.7 µM], ·, -6.9, ·, -3.6, -1.0
(3) CCOC(=O)c1c(C)[nH]c2c1cc(O)c1ccccc12
 : 11.5, -0.5, -22.6, 19.5, 1.4, 62.4*
(4) COc1ccc(C)cc1COC(=O)c1[nH]c(C)c(C(C)=O)c1C
 : 3.2, 4.3, -8.1, -2.3, 1.0, 10.2
(5) CCOC(=O)c1c(C)[nH]c(N=Nc2ccc(C)cc2C)c1C
 : 3.4, 61.0, -5.5, 4.2, -3.5, 28.4
(6) CCOC(=O)c1c(C)[nH]c(N=Nc2ccccc2C)c1C
 : -1.6, 78.8, -14.3, ·, 2.4, 48.4*
(7) CC(=O)c1c(C)[nH]c(C(=O)OCc2cccc(C)c2)c1C
 : -1.3, 14.8, -7.8, 8.3, 3.5, 53.6*
(8) CCOC(=O)c1c(C)oc2c1cc(O)c1ccccc12
 : 4.3, 47.1, ·, ·, ·, ·
(9) O=C(NCC[C@H]1CC[C@@H](NS(=O)(=O)c2ccc(Oc3ccccc3)cc2)[C@H](CO)O1)C1CC1
 : ·, ·, 1.4, ·, -1.8, 1.9
(10) NC(=O)N/N=C/c1sc(N2CCCCC2)nc1-c1cccs1
 : -0.4, 32.6, -18.0, 12.4, 2.3, 23.9
(11) CC(C)NC(=S)N/N=C/c1sc(N2CCCCC2)nc1-c1cccs1
 : -0.4, 37.5, -22.7, ·, 0.1, 66.9*
(12) Cc1c(/C=C/C(=O)c2ccccc2O)cnn1C
 : -1.6, ?, -20.5, -1.9, 2.1, 51.5*
(13) Cc1ccc2occ(/C=N/NC(=O)c3ccccc3O)c(=O)c2c1
 : ·, -13.7, 1.6, -1.0, -1.1, 11.8
(14) Cc1ccc2occ(/C=C/C(=O)c3ccccc3O)c(=O)c2c1
 : 6.7, 77.0, -5.3, 4.0, 0.6, 51.2*
(15) Cc1ccc(/C=C/C(=O)c2ccccc2O)cc1
 : ·, 36.8, -2.2, 26.0, -2.2, ·
(16) c1ccc2c(c1)-c1nc3ccccc3cc1C2N1CCCCC1 (stereo not drawn)
 : ·, ·, -14.3, 23.1, 2.5, ·
(17) O=c1cccc2n1Cc1cc3ccccc3nc1-2
 : 1.3, 39.9, -13.4, 38.7*, 1.4, 53.5*
(18) Cn1c(SCc2ccc(F)cc2)nnc1-c1ccccn1
 : 13.1, 51.6, 3.1, 43.2*, 4.6, 40.7*
(19) Cn1c(SCc2ccccc2F)nnc1-c1ccccn1
 : -3.6, 53.7, -3.4, 56.0*, -3.3, 26.9
(20) Nn1c(SCc2cccc(F)c2)nnc1-c1cccnc1
 : ·, ·, ·, 6.9, ·, 1.9
(21) Cc1ccc(CSc2nnc(-c3ccccn3)n2C)cc1
 : 29.1, ·, -25.8, 10.3, 4.6, 27.1
(22) Nn1c(SCc2ccccc2F)nnc1-c1cccnc1
 : 7.4, ·, -19.3, 51.8*, -8.5, ·
(23) COc1ccc(NC(=O)Nc2ccc3c(c2)CC(=O)N([C@H](C)CO)C[C@H](C)[C@H](CN(C)C(=O)NC(C)C)O3)cc1
 : -7.7[16.7 µM], ·, 3.6, ·, 0.4, -1.0
(24) COc1ccc(S(=O)(=O)NCCSC(C)(C)C)c(Cl)c1Cl
 : 253.4*, 5.5, -3.9, ·, 0.5, -7.1
(25) O=C(NCC1CC1)[C@H]1[C@H](CO)[C@H]2Cn3c(ccc(-c4cccc(F)c4)c3=O)[C@H]2N1CC1CCOCC1
 : ·, ·, ·, ·, -0.4, 4.0
(26) Nc1nc(SCc2ccccn2)c2ncn(C3CCCC3)c2n1
 : ·, 14.0, -12.2, -0.2, -5.5, 44.3*
(27) CCCn1cnc2c(SCc3ccccn3)nc(N)nc21
 : ·, 5.8, -20.9, 2.7, -0.9, 12.6
(28) O=C(O)C(=O)/C(=C\c1ccsc1)c1ccc2ccccc2n1
 : 3.5, -4.5, -17.1, 27.4, -2.3, 55.7*
(29) O=C(O)C(=O)/C(=C\c1ccccc1)c1ccc2ccccc2n1
 : ·, 5.8, -11.7, ·, -1.0, 37.1
(30) O=C(N[C@@H]1CC[C@H](CC(=O)N2CCN(c3ccccc3)CC2)O[C@H]1CO)c1ccncc1
 : ·, ·, -24.6, ·, 1.7, -2.4

A second format for part of the listing above:
#4 COc1ccc(C)cc1COC(=O)c1[nH]c(C)c(C(C)=O)c1C
#5 CCOC(=O)c1c(C)[nH]c(N=Nc2ccc(C)cc2C)c1C
#6 CCOC(=O)c1c(C)[nH]c(N=Nc2ccccc2C)c1C
#7 CC(=O)c1c(C)[nH]c(C(=O)OCc2cccc(C)c2)c1C
#8 CCOC(=O)c1c(C)oc2c1cc(O)c1ccccc12

assay / compound | 4 | 5 | 6 | 7 | 8
miR122 inh | 3.2 | 3.4 | -1.6 | -1.3 | 4.3
MITF act | 4.3 | 61.0 | 78.8 | 14.8 | 47.1
Yeast UUG start | -8.1 | -5.5 | -14.3 | -7.8 | ·
Wnt act | -2.3 | 4.2 | · | 8.3 | ·
PglD DTNB | 1.0 | -3.5 | 2.4 | 3.5 | ·
esBAF inh | 10.2 | 28.4 | 48.4* | 53.6* | ·

The list continues:
Sequence of screens – miR122 inh, MITF act, Yeast UUG start, Wnt act, PglD DTNB, esBAF inh
(31) O=C(NCCc1ccccc1)c1ccc(NC(=O)C2CC2)cc1
 : 2.4, 59.0, -12.5, 9.8, -5.3, 45.4*
(32) O=C(NCCc1ccccc1)c1cccc(NC(=O)C2CCCC2)c1
 : -1.1, 22.0, -9.1, 0.4, -1.5, 48.0*
(33) O=C(NCCCc1ccccc1)c1ccc(F)cc1
 : -3.6, ·, 2.9, ·, 1.7, 64.5*
(34) O=C(NCc1ccccc1)c1ccc(NC(=O)C2CC2)cc1
 : 6.0, 9.7, -17.0, 3.3, -1.1, 3.5
(35) O=C(Nc1ccccc1O)c1ccc(NC(=O)C2CC2)cc1
 : -7.3, 49.1, -34.5, 68.5*, -5.1, 23.5
(36) O=C(NCCc1ccccc1)c1cccc(NC(=O)C2CCCCC2)c1
 : -3.1, 8.3, -6.4, -1.0, -0.8, 23.2
(37) O=C(NCCCCNC(=O)c1ccc(F)cc1)c1ccc(F)cc1
 : -1.1, 0.6, -15.4, 0.5, 12.3, 0.5
(38) CC(C)NC(=O)N1[C@H](CO)[C@@H]2c3ccccc3N(C(=O)c3ccc(F)cc3)C[C@@H]21
 : -4.5[16.7 µM], ·, 8.3, ·, -0.4, -1.0
(39) Cc1cnc(NC(=O)COc2ccc3c(c2)CCC3)s1
 : ·, 40.0, -52.2, 43.1*, 0.9, 18.4
(40) O=C(COC(=O)COc1ccc2c(c1)CCC2)Nc1ccccc1
 : -1.5, 30.2, -10.6, -0.2, -1.5, 42.0*
(41) Cc1ccccc1NC(=O)COC(=O)COc1ccc2c(c1)CCC2
 : -6.8, -9.8, -18.2, -3.4, 3.5, -2.9
(42) O=C(COc1ccc2c(c1)CCC2)Nc1ccccn1
 : -4.3, -49.5, -89.8, 11.8, -3.7, 51.4*
(43) Cc1cccc(NC(=O)COc2ccc3c(c2)CCC3)n1
 : 2.2, 101.4*, ·, 1.7, ·, 9.9
(44) COc1cc(C)c(NC(=O)COc2ccc3c(c2)CCC3)cc1OC
 : -6.7, -4.4, -3.5, 2.0, 0.4, -2.2
(45) O=C(COc1ccc2c(c1)CCC2)NCc1ccccc1
 : ·, 14.8, ·, 2.3, ·, ·
(46) COc1ccc(Nc2nc(N)c3ccccc3n2)c(OC)c1
 : 13.1, 89.1*, -13.0, 22.1, -0.9, -9.6
(47) C[C@H](CO)N1C[C@H](C)[C@H](CN(C)C(=O)c2ccccc2)OCCCC[C@H](C)Oc2ccc(NC(=O)C3CCCCC3)cc2C1=O
 : 37.7[16.7 µM], ·, 11.9, ·, -0.8, 13.8
(48) CCOC(=O)c1sc(NC(=O)c2ccccc2)cc1C
 : 22.6, ·, -12.1, ·, -0.2, 57.3*
(49) CCOC(=O)c1sc(NC(=O)C(C)(C)C)cc1C
 : -6.6, ·, -19.9, 26.8, 0.4, 57.3*
(50) CCOC(=O)c1sc(NC(=O)c2ccc(S(=O)(=O)N(C)C)cc2)cc1C
 : 3.3, ·, -10.4, -14.1, -6.2, -5.8
(51) CCOC(=O)c1sc(NC(=O)c2ccc(Cl)s2)cc1C
 : -0.9, 63.0, -12.4, 24.5, 2.8, 61.5*
(52) CCNC(=O)C[C@@H]1CC[C@H]2[C@H](COc3ccc(NC(=O)Nc4c(C)noc4C)cc3C(=O)N2C)O1
 : 2.2[16.7 µM], ·, 5.7, ·, 4.5, 0.3
(53) COC(=O)Cn1c(C)nc2c(sc3nc(C)cc(C)c32)c1=O
 : -1.3, 90.9*, -19.4, ·, -5.8, ?
(54) CCOC(=O)Cn1cnc2c(sc3nc(C)cc(C)c32)c1=O
 : ·, ·, ·, 37.6*, ·, 34.8
(55) CC1CCc2nc(NC(=O)Cc3cccs3)sc2C1 (stereo not drawn)
 : -5.8, 126.3*, -13.2, -2.8, -1.8, 57.5*

Source: PubChem
